A selection: hits, their analogues and other compounds. The true share with any hit is near 0.24%.
TSG101-PTAP inh – blocks PTAP/TSG101 interaction to inhibit HIV-1 budding. Fluorescence polarization, FITC-PTAP peptide / Tsg101 binding. 340,000 tested, under 10 active. Potency, µM (top dose mostly 115 µM), inactives show top-dose activity change, negative = inhibition, usual class: inhibitors. Q99816. AID 493005; active means well fitted inhibition curve with a large enough effect in the main read-out, with a control signal flat, not every such curve was filed as active; inconclusive means small, poorly fitted or top-dose-only effect, or effect the other way, or a change in a side signal; inactive means no such curve, though single readings can be large or run the other way; further: potency means the concentration at half of the fitted maximal effect; % of control where 0% means no effect
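Tsg101 binding domain (10 uM final) was mixed with compound and a FITC-labeled PTAP peptide (50 nM final) in HEPES pH 7.5 buffer with NaCl, Tween 20, EDTA and TCEP; fluorescence polarization was read after 20 min at r.t.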
Eya2 phos inh – inhibitors of human Eya2 phosphatase activity | O00167 | recombinant Eya2, OMFP fluorescence dephosphorylation (OMFP is methylfluorescein phosphate) | Potency, µM (titrated, usually from 76.9 µM), for the others: at the top dose activity, negative = inhibition, most hits filed as inhibitors | hit rate 0.006% among 330,000 | AID 488837; further: potency means the concentration at half of the fitted maximal effect; on the % scale 0 is the no-effect control and ±100 the full control effect
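Eya2 (0.2 uM) preincubated 10 min at ambient with compound, then OMFP substrate added at 50 uM; 10 min reaction in 50 mM HEPES pH 7.5, 50 mM NaCl, 5 uM MgCl2, 0.05% BSA, 1 mM DTT. Fluorescence read at Ex 485/Em 525 nm.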
USP2a block – inhibitors of human ubiquitin-specific protease USP2a. AID 463254. Potency, µM (doses to about 38.3 µM), inactives show top-dose activity change, negative = inhibition, most hits filed as inhibitors. hit rate 0.01% among 330,000. USP2 core, Ub-CHOP2 coupled fluorogenic reporter, 485/531;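 further: potency means the concentration at half of the fitted maximal effect; plate controls were DMSO wells for no effect and full inhibition by NEM control for full effect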
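Cell-free coupled assay: 10nM USP2 core preincubated 30min RT with compound in Tris-HCl pH 8.0/CaCl2/CHAPS buffer, then 25nM Ub-CHOP2 and 25nM reporter substrate; fluorescence (Ex 485/Em 531) read after 60min RT, normalized to NEM inhibition, concentration-response curves fitted.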
miR-21 reporter – raises the signal of a miR-21 reporter; 340,000 tested, under 10 active; HeLa miR-21 FLuc reporter, luciferase, 48 h; Potency, µM (highest dose often 38.3 µM), without a hit: top-dose reporter change, positive = more light; active = well fitted rising curve with a large enough effect; inconclusive = small, poorly fitted or top-dose-only effect; inactive = no such curve, though single readings can be large or run the other way;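 also: % of control where 0% means no effect; miR-21 action dims this reporter so a rising signal means less miR-21 action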
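Using DMEM plus 10% FBS, HeLa miR-21-FLuc cells are incubated with test compounds (final up to about 40uM) for 48 hours; firefly luciferase signal is then imaged following reagent-mediated lysis.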
PTHR1 agonist – activates the human parathyroid hormone receptor PTHR1 | Q03431 | hit rate 0.075% among 410,000 | Potency, µM (highest dose often 115 µM), for the others: top-dose activation, hits mostly activators | HEK293 GP2 PTHR1 cells, GloSensor cAMP luminescence, 1 h; further: potency means the concentration at half of the fitted maximal effect; nearly all actives have a fitted effect of over 55% in size
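HEK-293-derived GP2 cells expressing PTHR1 and a GloSensor cAMP reporter, 3,000/well, plated overnight, given luciferin plus IBMX (each 0.5 mM as added) for 1 h at 37 °C, then compound for 1 h at 37 °C. Luminescence was read after 15 min at room temperature.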
GLS inh – glutaminase GLS (human) inhibition; O94925; GLS enzymatic activity, qHTS titration; Potency, µM (doses to about 45.5 µM), for the others: at the highest dose activity change, negative = inhibition, usual class: inhibitors; hit rate 0.21% among 410,000; further: potency means the concentration at half of the fitted maximal effect; on the % scale 0 is the no-effect control and ±100 the full control effect
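Assay buffer: 45 mM KH2PO4 pH 8.2, 0.02% Tween-20. hKGA acts on L-glutamine (1 mM solution added); product glutamate is reported by an oxidase/peroxidase Amplex Red coupling, with fluorescence taken at baseline and 30 min.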
* marks the source's active call; other numbers are inactive results; i = inactive; u = inconclusive; x = no result given; [ ] = remark or other dose. Unless noted, the call rests on the fitted dose curve; in most records, active means well fitted curve in the direction sought with a large enough effect; inconclusive means small, poorly fitted or top-dose-only effect, or another doubt; inactive means no such curve, though single readings can be large; an effect the other way counts as inactive or inconclusive.

SMILES	TSG101-PTAP inh	Eya2 phos inh	USP2a block	miR-21 reporter	PTHR1 agonist	GLS inh
Cc1ccccc1-c1noc(-c2ccc(N3CCN(C)CC3)c([N+](=O)[O-])c2)n1	x	x	x	-3%	i	-8%
Cc1ccc(Nc2c(-c3ccccc3O)nc3cnccn23)cc1	1%	1%	2%	1%	-27%	7.9µM*
COc1cc2cc(Oc3ccc4ccc(=O)oc4c3)c(=O)oc2cc1O[C@@H]1O[C@H](CO)[C@@H](O)[C@H](O)[C@H]1O	-5%	-4%	-1%	x	i	18µM*
O=C(O)c1ccc(CSc2nnnn2-c2ccc(F)cc2)cc1	0%	3%	0%	-4%	i	-3%
O=C(CSc1nnnn1-c1ccc(F)cc1)c1ccc(O)c(O)c1	-3%	2%	5.6µM*	-26%	-1%	0%
Cc1ccc(CNC(=O)C(C)n2nc(C)c3sc4ccccc4c3c2=O)cc1 (configuration not stated)	x	x	x	-4%	45µM*	-9%
CCCn1c2ccccc2c2cnn(CC(=O)NCCCN(Cc3ccccc3)C(C)C)c(=O)c21	x	x	x	2%	i	8%
CCOc1cc(C=NN2CCCCCC2)ccc1O	-1%	x	x	x	-1%	11µM*
COc1cc(/C=C2\CCC/C(=C\c3ccc(O)c(OC)c3)C2=O)ccc1O	-6%	0%	-10%	u	-26%	12%
CCOc1cc(/C=C2\CN(CC)C/C(=C\c3ccc(O)c(OCC)c3)C2=O)ccc1O	-1%	4%	1%	u	-21%	13µM*
COC(=O)c1ccc(C(=O)OC)c(NC(=O)c2ccc(-c3ccccc3)s2)c1	x	x	x	-8%	-27%	-3%
COc1cc2c(ccc3cc(OC)c(OC)c(O)c32)cc1O	0%	17%	-30%	u	-2%	7.9µM*
O=c1oc2ccccc2c2oc3cc(O)c(O)cc3c12	0%	-9%	-14%	-40%	20%	2.8µM*
Nc1c(N)c2ccccc2oc1=O	-3%	22%	1%	-12%	-14%[57.5 µM]	10%
CC1(C)Cc2c(sc3ncn4c(=S)[nH]nc4c23)CO1	-1%	4%	0%	0%	-19%	13µM*
O=C(c1ccccc1)c1ccc(O)c(O)c1O	2%	x	x	x	i	10µM*
CC(C)CC1=C/C(=C/c2ccc(-c3ccccc3)o2)C(=O)O1	-1%	7%	-13%	-35%	i	11µM*
CC(CCc1ccccc1)NC(=O)CN1CCN(c2ccc(O)cc2)CC1 (configuration not stated)	-2%	3%	1%	-13%	i	10µM*
COc1ccc(-c2cc(C(F)F)n3ncc(C(=O)Nc4cc(C)on4)c3n2)cc1	-3%	-12%	-6%	17%	-3%	0.71µM*
CC(C(=O)N(C)C1CCS(=O)(=O)C1)N1C(=O)/C(=C/c2ccco2)SC1=S (configuration not stated)	-2%	7%	2%	2%	-11%	-20%
CC(C(=O)Nc1ccc(C(=O)O)c(O)c1)N1C(=O)/C(=C\c2ccco2)SC1=S (configuration not stated)	-3%	22%	u	1%	i	18µM*
O=C(CN1C(=O)/C(=C/c2ccco2)SC1=S)Nc1ccc(O)c(C(=O)O)c1	-4%	13%	1%	0%	-2%	-10%
O=C(CN1C(=O)/C(=C/c2ccco2)SC1=S)Nc1ccc(C(=O)O)c(O)c1	-7%	-15%	0%	1%	i	22µM*
COc1ccc(-c2csc(N(CCCN(C)C)C(=O)c3ccccc3Cl)n2)cc1	2%	x	x	x	i	1%
COc1ccc(-c2csc(N(CCCN(C)C)C(=O)c3ccccc3C)n2)cc1	1%	50µM*	-25%	u	i	-6%

Not a retest: an excerpt of the list.
SMILES	TSG101-PTAP inh	Eya2 phos inh	USP2a block	miR-21 reporter	PTHR1 agonist	GLS inh
O=C(CN1C(=O)/C(=C/c2ccco2)SC1=S)Nc1ccc(C(=O)O)c(O)c1	-7%	-15%	0%	1%	i	22µM*
COc1ccc(-c2csc(N(CCCN(C)C)C(=O)c3ccccc3Cl)n2)cc1	2%	x	x	x	i	1%
COc1ccc(-c2csc(N(CCCN(C)C)C(=O)c3ccccc3C)n2)cc1	1%	50µM*	-25%	u	i	-6%

Looked up above:
For Eya2 phos inh, `CC(C(=O)Nc1ccc(C(=O)O)c(O)c1)N1C(=O)/C(=C\c2ccco2)SC1=S` (configuration not stated) reads 22%
For PTHR1 agonist, `COc1cc2c(ccc3cc(OC)c(OC)c(O)c32)cc1O` reads -2%

Source: PubChem
